In this assay the test system is T47D breast cancer cell line. As to the kind of experiment: Sulforhodamine B viability, isobologram and combination index in T47D cells (Examples 4-5). As to conditions: Homo sapiens, read-out: Bortezomib (M) resulting in 50% reduction in viability, single agent (IC50). How it is done: For assessment of combined BTZ and cilengitide toxicity, T47D cells were seeded at a density of 7500 cells/cm^2 in 96-well cell culture plates and incubated for 24 hours. Cilengitide was diluted to 20 μM in complete DMEM, then 3 serial tenfold dilutions of this were performed in complete DMEM (2 μM, 200 nM and 20 nM). Complete DMEM containing no cilengitide was provided for negative controls.
These dilutions (or DMSO for wells containing no BTZ) were added to aliquots of complete DMEM containing 0-20 μM cilengitide for a 1/150 dilution. Aliquots (0.1 mL) of each mixture were added to wells already containing 0.1 mL medium (in duplicate), resulting in a matrix of cilengitide (10 nM-10 μM) and/or BTZ (1 nM-10 μM) or neither agent (diluent only).
OD570nm readings were divided by those resulting from negative control (diluent only) wells and expressed as a percentage. Three independent replicates of this experiment were carried out.
The isoboles were obtained similarly by extrapolation of points representing 50% reduction in viability from line graphs of % viability versus concentration of one agent at variable concentration with the other agent supplied at a fixed concentration. […]

As to `CC(C)C[C@H](NC(=O)[C@H](Cc1ccccc1)NC(=O)c1cnccn1)B(O)O` [Bortezomib], the IC50 amounted to 8.9e-08 M.

For the origin of these results see patent publication US10328116B2, “Combinations of proteasome inhibitors and cyclic peptides” (BIG DNA LTD, priority 2014, dated 2019).
